Experiments:
[1] = molecular target: Medaka EP-1 serine protease domain (wild-type) (Oryzias latipes (Japanese Medaka)); experiment: cell-based or functional assay
[2] = molecular target: Medaka EP-2 serine protease domain (Oryzias latipes (Japanese Medaka)); experiment: cell-based or functional assay

Aprotinin (from UniProt P00974 36-93)
Inhibition (%) of GD4K-βNA hydrolysis at 0.01 mg/ml [1]: 0% | Inhibition (%) of GD4K-βNA hydrolysis at 0.01 mg/ml [2]: 5%

Source: patent US20080213836A1
